System: Escherichia coli
Assay: Antimicrobial activity against Escherichia coli IFO 3301 after 24 hrs
Format: functional
Procedure, shortened: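 MIC by two-fold serial dilution in wells inoculated with 10^6 CFU/mL of each organism; incubated at 36 °C for 24 h (bacteria); MIC taken as lowest concentration giving no visible growth by unaided eye.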

Sequence GENTAMICIN has an MIC of 0.5 µg/mL.

From ChEMBL document CHEMBL1275285, “Synthesis, antimicrobial and anti-inflammatory activities of novel 5-(1-adamantyl)-1,3,4-thiadiazole derivatives” (2010)
